This note sets out measurements from patent publication US20100273780A1, “SUBSTITUTED 8-HETEROARYL XANTHINES” (PGXHEALTH, LLC, priority 2003, published 2010).

This assay deals with T1, rat A2B receptors (rA2B) (Rattus norvegicus, UniProt P29276).
T1 construct: expressed in transfected cells; host or cells: HEK-293 cells, stably transfected (G418 selection); membranes
T1 sequence (P29276 1-332): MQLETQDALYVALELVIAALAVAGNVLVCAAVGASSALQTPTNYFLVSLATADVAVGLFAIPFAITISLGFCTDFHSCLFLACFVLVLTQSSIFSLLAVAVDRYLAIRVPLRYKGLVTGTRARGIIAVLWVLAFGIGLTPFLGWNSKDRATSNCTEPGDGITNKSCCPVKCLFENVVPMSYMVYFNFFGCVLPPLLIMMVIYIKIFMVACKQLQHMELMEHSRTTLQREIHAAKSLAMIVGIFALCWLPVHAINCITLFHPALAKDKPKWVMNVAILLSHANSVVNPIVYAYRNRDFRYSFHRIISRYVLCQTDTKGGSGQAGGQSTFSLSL
The assay is described as follows: Radioligand competition binding (125I-ABOPX) at rat A2B receptors in HEK-293 membranes. To be noted: displacement of specific [125I]ABOPX binding at rat A2B receptors expressed in HEK-293 cells; read-out: RatA2B Ki. On the procedure:
The plasmid was amplified in competent JM109 cells and plasmid DNA isolated using Wizard Megaprep columns (Promega Corporation, Madison, Wis.).
Transfected HEK cells were grown under 5% CO2/[…] humidified atmosphere at a temperature of 37° C. Colonies were selected by growth of cells in 0.6 mg/mL G418. Transfected cells were maintained in DMEM supplemented with Hams F12 nutrient mixture (1/1), 10% newborn calf serum, 2 mM glutamine and containing 50 IU/mL penicillin, […], and 0.2 mg/mL Geneticin (G418, Boehringer Mannheim). Cells were cultured in 10 cm diameter round plates and subcultured when grown confluent (approximately after 72 hours).
At A2B receptors: Confluent monolayers of HEK-A2B cells were washed with PBS followed by ice cold Buffer A (10 mM HEPES, 10 mM EDTA, pH 7.4) with protease inhibitors (10 μg/mL benzamidine, 100 μM phenylmethanesulfonyl fluoride, and 2 μg/mL of each aprotinin, pepstatin and leupeptin). The cells were homogenized in a Polytron (Brinkmann) for 20 s, centrifuged at 30,000×g, and the pellets washed twice with buffer HE (10 mM HEPES, 1 mM EDTA, pH 7.4 with protease inhibitors). The final pellet was resuspended in buffer HE, supplemented with 10% sucrose and frozen in aliquots at −80° C. For binding assays membranes were thawed and diluted 5-10 fold with HE to a final protein concentration of approximately 1 mg/mL. To determine protein concentrations, membranes, and bovine serum albumin standards were dissolved in 0.2% NaOH/0.01% SDS and protein determined using fluorescamine fluorescence. Stowell, C.
After incubation, 20 minutes at room temperature, 50 μL, of 10 mg/mL Na-metabisulfite in water was added to quench the reaction. […]
Radioligand binding experiments were performed in triplicate with 20-25 μg membrane protein in a total volume of 0.1 mL HE buffer supplemented with 1 U/mL adenosine deaminase and 5 mM MgCl2. […] Nonspecific binding was measured in the presence of 100 μM NECA. […] Bmax and KD values were calculated by Marquardt's nonlinear least squares interpolation for single a site binding models. […]
For the substance “1,3-Diethyl-8-[6-[N-nicotinoylmethylamino]-3-pyridyl)xanthine [Compound 64]”, the Ki is under 500 nM. The result for “1,3-Dipropyl-8-[6-[N-nicotinoylmethylamino]-3-pyridyl)xanthine [Compound 47]” reads under 500 nM; that for “1-Propargyl, 3-methyl-8-[6-[N-nicotinoylmethylamino]-3-pyridyl)xanthine [Compound 101]”, under 500 nM.
